Reference: ChEMBL document CHEMBL6153053, “Synthesis and biological evaluation of novel pyrrolo[2,3-b]pyridine derivatives as potent GSK-3β inhibitors for treating Alzheimer's disease” (Eur J Med Chem, 2025)

The chains behind the UniProt entries cited, without tags or fusion partners. Where a name states a change or a piece, a line headed by the entry shows the natural chain unless it says otherwise.
UniProt O75582, whole entry, looked up: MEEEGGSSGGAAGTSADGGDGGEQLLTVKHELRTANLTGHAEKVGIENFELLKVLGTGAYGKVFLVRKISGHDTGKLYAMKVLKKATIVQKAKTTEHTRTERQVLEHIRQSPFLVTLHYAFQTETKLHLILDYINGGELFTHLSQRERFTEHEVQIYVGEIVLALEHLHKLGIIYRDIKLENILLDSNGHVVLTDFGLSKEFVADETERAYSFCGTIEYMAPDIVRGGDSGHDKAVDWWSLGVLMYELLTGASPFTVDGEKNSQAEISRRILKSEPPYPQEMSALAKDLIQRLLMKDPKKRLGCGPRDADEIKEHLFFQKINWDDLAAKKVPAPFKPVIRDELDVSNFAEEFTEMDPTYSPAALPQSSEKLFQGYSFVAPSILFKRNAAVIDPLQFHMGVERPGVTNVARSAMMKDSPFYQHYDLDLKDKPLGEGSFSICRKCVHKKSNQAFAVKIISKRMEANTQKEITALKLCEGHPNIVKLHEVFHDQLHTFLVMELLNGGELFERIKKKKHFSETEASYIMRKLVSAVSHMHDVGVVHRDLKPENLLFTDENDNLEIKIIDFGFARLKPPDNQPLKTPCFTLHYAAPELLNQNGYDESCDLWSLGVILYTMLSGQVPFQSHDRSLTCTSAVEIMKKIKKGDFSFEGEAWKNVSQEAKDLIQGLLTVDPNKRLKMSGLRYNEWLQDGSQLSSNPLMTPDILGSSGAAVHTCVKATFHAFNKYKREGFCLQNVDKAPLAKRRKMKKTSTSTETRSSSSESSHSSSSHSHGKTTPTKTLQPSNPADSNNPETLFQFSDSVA
UniProt Q16539, whole entry: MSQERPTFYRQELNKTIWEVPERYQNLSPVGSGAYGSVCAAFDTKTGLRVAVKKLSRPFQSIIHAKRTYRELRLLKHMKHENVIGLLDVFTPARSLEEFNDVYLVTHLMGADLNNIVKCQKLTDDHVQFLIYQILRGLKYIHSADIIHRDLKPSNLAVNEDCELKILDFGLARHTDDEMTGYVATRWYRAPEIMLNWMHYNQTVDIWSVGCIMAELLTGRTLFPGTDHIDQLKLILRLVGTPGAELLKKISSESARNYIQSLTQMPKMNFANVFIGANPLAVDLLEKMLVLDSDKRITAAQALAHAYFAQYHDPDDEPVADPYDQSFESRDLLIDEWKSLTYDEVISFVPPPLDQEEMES
UniProt P67870, whole entry, looked up: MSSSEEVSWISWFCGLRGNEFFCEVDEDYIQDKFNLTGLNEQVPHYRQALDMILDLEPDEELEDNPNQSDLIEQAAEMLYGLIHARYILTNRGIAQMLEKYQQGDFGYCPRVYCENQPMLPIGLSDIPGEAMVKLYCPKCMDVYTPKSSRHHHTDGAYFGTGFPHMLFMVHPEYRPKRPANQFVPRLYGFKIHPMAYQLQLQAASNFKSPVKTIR
UniProt P68400, whole entry, looked up: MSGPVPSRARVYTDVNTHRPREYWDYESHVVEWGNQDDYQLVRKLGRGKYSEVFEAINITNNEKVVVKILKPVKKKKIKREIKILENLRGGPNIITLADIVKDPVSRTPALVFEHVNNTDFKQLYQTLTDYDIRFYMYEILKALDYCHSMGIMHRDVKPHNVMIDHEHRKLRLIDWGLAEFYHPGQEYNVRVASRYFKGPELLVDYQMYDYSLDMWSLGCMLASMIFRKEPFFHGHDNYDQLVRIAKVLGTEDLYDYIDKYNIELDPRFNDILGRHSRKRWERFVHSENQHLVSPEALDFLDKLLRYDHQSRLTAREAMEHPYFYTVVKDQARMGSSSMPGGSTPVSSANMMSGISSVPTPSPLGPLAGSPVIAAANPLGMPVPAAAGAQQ
UniProt P19784, whole entry, looked up: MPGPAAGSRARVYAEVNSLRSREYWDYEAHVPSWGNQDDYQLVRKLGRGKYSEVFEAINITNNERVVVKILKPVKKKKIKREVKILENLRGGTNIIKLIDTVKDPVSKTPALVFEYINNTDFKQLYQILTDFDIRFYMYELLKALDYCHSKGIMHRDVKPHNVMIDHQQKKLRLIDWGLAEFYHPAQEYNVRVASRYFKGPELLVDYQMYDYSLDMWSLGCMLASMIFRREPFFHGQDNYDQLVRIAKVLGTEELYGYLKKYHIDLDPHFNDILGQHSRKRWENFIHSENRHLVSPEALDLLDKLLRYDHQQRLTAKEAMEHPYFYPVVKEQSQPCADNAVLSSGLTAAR
UniProt P54646: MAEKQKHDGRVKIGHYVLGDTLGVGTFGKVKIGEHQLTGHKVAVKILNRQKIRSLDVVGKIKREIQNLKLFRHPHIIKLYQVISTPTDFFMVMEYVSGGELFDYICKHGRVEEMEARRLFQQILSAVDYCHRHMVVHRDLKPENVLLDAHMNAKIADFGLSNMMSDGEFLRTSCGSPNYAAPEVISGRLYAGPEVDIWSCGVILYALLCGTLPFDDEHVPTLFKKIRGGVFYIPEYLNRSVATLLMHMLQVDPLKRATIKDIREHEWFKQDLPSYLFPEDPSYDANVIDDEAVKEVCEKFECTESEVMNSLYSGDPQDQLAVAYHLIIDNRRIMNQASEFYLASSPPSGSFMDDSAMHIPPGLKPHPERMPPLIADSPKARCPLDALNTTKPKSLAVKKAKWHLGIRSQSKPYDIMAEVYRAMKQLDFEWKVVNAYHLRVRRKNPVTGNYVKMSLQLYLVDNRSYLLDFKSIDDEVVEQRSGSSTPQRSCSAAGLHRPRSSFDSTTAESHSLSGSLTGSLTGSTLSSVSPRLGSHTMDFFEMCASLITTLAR
UniProt P28482, whole entry: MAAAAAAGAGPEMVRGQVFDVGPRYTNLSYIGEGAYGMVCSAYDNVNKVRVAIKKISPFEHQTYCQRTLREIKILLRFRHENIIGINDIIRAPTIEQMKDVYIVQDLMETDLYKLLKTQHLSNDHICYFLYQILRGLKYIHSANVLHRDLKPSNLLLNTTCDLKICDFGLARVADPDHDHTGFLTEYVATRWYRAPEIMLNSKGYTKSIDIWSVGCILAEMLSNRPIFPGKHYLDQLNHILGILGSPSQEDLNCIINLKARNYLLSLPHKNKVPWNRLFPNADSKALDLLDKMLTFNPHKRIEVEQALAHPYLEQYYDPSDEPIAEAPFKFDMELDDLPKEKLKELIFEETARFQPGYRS
UniProt Q15118, whole entry, looked up: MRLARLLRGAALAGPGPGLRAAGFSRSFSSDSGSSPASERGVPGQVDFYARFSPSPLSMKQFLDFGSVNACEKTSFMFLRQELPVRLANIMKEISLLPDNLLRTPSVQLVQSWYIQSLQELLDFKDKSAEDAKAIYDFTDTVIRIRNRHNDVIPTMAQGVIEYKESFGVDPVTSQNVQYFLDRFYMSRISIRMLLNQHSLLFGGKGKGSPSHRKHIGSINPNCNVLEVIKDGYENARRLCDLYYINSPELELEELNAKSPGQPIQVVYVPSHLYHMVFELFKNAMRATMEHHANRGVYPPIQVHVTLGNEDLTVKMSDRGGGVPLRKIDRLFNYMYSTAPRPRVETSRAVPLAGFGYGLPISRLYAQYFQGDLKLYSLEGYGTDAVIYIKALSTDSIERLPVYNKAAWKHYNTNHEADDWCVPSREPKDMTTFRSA
UniProt Q13131: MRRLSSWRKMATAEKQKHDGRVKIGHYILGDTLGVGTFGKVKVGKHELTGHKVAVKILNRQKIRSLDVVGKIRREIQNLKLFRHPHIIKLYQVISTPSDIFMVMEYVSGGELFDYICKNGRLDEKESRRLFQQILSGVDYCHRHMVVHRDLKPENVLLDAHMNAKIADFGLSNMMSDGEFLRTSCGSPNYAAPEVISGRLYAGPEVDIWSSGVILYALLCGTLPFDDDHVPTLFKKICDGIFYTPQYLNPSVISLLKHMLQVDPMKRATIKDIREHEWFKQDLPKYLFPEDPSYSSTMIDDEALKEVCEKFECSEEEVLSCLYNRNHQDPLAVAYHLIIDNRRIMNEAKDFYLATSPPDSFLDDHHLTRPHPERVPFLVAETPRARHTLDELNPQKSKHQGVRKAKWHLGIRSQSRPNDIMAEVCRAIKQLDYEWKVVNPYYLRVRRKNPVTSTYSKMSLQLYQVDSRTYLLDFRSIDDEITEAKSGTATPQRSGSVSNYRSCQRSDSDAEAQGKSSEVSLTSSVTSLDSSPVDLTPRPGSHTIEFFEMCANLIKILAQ
UniProt Q15759, whole entry: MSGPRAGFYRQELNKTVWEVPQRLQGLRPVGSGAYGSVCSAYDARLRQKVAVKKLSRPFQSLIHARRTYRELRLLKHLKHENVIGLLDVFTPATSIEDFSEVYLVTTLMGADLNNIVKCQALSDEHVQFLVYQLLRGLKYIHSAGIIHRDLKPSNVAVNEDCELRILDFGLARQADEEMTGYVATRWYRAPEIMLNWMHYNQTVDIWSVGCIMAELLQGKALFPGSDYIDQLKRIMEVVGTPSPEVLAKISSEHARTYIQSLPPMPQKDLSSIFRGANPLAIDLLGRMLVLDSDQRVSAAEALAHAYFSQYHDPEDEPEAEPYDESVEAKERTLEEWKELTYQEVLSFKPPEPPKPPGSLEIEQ
UniProt P20248, whole entry, looked up: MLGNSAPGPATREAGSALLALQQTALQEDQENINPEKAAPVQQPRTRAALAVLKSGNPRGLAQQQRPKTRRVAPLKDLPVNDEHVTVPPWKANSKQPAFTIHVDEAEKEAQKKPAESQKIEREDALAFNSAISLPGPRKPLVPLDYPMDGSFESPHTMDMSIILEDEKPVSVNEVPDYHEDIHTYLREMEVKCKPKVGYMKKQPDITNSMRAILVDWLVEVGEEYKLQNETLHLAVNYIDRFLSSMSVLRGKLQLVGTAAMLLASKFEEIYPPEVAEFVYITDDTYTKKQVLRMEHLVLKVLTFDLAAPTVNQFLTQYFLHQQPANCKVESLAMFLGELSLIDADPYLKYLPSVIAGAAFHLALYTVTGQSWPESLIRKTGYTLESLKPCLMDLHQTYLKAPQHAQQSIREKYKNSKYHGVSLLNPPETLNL
UniProt P78396: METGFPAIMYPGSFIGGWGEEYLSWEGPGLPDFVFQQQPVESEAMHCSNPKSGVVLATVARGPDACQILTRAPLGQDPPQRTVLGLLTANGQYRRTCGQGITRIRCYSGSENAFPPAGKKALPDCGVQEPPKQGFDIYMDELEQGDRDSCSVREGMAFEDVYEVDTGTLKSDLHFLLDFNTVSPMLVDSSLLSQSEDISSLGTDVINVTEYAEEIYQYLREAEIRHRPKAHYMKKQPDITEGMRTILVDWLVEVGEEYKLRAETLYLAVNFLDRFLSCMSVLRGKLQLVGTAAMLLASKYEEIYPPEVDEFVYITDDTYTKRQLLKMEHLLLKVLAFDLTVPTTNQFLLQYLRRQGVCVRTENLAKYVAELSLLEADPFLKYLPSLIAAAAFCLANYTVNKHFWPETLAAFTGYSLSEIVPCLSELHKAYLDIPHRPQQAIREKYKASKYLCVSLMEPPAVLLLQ
UniProt P49841: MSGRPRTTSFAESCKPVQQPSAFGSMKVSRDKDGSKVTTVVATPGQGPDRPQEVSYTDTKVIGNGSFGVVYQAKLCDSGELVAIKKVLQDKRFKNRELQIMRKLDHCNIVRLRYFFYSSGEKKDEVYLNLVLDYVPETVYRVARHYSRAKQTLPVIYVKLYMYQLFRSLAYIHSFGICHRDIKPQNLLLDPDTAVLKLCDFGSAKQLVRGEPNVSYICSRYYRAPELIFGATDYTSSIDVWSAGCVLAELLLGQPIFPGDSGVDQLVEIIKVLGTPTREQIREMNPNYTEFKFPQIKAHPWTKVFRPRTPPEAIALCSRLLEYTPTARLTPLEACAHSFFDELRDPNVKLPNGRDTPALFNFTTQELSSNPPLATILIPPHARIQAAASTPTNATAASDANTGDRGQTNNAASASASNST

Assays:
[1] = biological target: Protein kinase C alpha type (Homo sapiens) (UniProt P17252); experiment: Inhibition of human PKC-alpha at 1.0 uM by Eurofins kinase assay relative to control
[2] = biological target: T1, MAP kinase-activated protein kinase 5 (Homo sapiens) (UniProt Q8IW41); experiment: Inhibition of human PRAK at 1.0 uM by Eurofins kinase assay relative to control
T1 sequence (whole entry): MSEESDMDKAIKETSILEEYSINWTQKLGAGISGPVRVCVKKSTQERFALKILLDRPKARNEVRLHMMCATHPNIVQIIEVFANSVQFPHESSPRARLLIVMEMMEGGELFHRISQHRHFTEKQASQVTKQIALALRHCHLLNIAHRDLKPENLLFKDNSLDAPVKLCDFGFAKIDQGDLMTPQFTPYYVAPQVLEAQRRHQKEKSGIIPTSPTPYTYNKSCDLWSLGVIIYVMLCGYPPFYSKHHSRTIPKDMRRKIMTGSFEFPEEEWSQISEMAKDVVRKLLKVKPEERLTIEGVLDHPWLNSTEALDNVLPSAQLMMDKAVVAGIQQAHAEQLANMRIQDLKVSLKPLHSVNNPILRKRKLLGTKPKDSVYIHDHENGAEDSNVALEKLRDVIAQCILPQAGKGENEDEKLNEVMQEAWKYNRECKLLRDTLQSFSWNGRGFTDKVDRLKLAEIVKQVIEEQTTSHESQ

[3] = biological target: T2, Serine/threonine-protein kinase Sgk1 (Homo sapiens) (UniProt O00141); experiment: Inhibition of human SGK at 1.0 uM by Eurofins kinase assay relative to control
T2 sequence (whole entry): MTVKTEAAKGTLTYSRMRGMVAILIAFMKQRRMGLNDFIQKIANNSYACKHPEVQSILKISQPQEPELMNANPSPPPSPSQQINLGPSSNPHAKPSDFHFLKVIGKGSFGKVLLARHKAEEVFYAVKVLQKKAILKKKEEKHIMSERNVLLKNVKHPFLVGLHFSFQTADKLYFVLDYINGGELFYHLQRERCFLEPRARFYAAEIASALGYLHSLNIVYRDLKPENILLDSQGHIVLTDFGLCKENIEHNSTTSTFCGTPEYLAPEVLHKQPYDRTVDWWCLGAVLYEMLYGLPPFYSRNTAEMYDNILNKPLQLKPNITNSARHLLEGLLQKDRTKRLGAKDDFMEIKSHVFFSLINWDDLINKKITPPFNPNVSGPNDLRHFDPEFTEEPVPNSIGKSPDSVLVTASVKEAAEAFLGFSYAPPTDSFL

[4] = biological target: T3, Serine/threonine-protein kinase Chk1 (Homo sapiens) (UniProt O14757); experiment: Inhibition of human CHK1 at 1.0 uM by Eurofins kinase assay relative to control
T3 sequence (whole entry): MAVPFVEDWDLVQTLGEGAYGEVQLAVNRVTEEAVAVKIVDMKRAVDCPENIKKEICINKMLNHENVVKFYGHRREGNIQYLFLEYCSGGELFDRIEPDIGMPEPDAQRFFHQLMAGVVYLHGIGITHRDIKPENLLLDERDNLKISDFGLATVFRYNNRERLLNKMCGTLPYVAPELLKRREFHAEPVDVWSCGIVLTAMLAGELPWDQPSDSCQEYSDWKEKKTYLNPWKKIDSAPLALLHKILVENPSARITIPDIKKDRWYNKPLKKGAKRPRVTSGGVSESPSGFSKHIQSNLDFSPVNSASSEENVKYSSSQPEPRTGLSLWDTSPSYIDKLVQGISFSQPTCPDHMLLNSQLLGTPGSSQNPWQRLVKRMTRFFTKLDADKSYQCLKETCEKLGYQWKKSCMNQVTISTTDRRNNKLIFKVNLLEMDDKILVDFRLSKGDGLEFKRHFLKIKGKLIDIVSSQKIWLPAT

[5] = biological target: Ribosomal protein S6 kinase alpha-5 (Homo sapiens) (UniProt O75582); experiment: Inhibition of human MSK1 at 1.0 uM by Eurofins kinase assay relative to control
[6] = biological target: RAC-alpha serine/threonine-protein kinase (Homo sapiens) (UniProt P31749); experiment: Inhibition of human PKB-alpha at 1.0 uM by Eurofins kinase assay relative to control
[7] = biological target: Mitogen-activated protein kinase 14 (Homo sapiens) (UniProt Q16539); experiment: Inhibition of human SAPK2a at 1.0 uM by Eurofins kinase assay relative to control
[8] = biological target: Casein kinase 2 (Homo sapiens) (UniProt P67870+P68400+P19784+Q8NEV1); experiment: Inhibition of human CK2 at 1.0 uM by Eurofins kinase assay relative to control; assay type: protein assay
[9] = biological target: 5'-AMP-activated protein kinase catalytic subunit alpha-2 (Homo sapiens) (UniProt P54646); experiment: Inhibition of human AMPKalpha2 at 1.0 uM by Eurofins kinase assay relative to control
[10] = biological target: Mitogen-activated protein kinase 1 (Homo sapiens) (UniProt P28482); experiment: Inhibition of human MAPK1 at 1.0 uM by Eurofins kinase assay relative to control
[11] = biological target: [Pyruvate dehydrogenase (acetyl-transferring)] kinase isozyme 1, mitochondrial (Homo sapiens) (UniProt Q15118); experiment: Inhibition of human PDK1 at 1.0 uM by Eurofins kinase assay relative to control
[12] = biological target: Tyrosine-protein kinase Lck (Homo sapiens) (UniProt P06239); experiment: Inhibition of human LCK at 1.0 uM by Eurofins kinase assay relative to control
[13] = biological target: CDK4/Cyclin D3 (Homo sapiens) (UniProt P11802+P30281); experiment: Inhibition of human CDK4/cyclinD3 at 1.0 uM by Eurofins kinase assay relative to control; assay type: protein-complex assay
[14] = biological target: 5'-AMP-activated protein kinase catalytic subunit alpha-1 (Homo sapiens) (UniProt Q13131); experiment: Inhibition of human full length recombinant AMPKalpha-1 at 1.0 uM by Eurofins kinase assay relative to control; conditions: time 40.0 min
[15] = biological target: T4, Mitogen-activated protein kinase 12 (Homo sapiens) (UniProt P53778); experiment: Inhibition of human SAPK3 at 1.0 uM by Eurofins kinase assay relative to control
T4 sequence (whole entry): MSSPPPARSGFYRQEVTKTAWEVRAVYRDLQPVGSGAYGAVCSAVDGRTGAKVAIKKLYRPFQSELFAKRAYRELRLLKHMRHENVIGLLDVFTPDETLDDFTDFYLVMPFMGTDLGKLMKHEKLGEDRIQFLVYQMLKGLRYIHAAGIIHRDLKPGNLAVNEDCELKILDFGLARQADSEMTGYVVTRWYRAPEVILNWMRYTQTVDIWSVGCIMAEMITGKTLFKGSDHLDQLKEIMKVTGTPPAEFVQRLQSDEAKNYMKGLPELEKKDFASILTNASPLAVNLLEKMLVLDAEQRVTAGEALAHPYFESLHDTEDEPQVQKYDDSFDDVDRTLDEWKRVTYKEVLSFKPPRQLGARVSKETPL

[16] = biological target: Mitogen-activated protein kinase 11 (Homo sapiens) (UniProt Q15759); experiment: Inhibition of human SAPK2b at 1.0 uM by Eurofins kinase assay relative to control
[17] = biological target: Cyclin-dependent kinase 2/cyclin A (Homo sapiens) (UniProt P24941+P20248+P78396); experiment: Inhibition of human CDK2/cyclinA at 1.0 uM by Eurofins kinase assay relative to control; assay type: protein-complex assay
[18] = biological target: Cyclin-dependent kinase 5/CDK5 activator 1 (Homo sapiens) (UniProt Q00535+Q15078); experiment: Inhibition of human CDK5/p35 at 1.0 uM by Eurofins kinase assay relative to control; assay type: protein-complex assay
[19] = biological target: Glycogen synthase kinase-3 beta (Homo sapiens, UniProt P49841); experiment: Inhibition of GSK-3 beta in human SH-SY5Y cells assessed as reduction in Abeta-induced tau reduction in p-tau/GAPDH ratio at 20 mM preincubated for 1 hrs followed by A-beta (25 to 35) stimulation and measured after 6 hrs by Western blot analysis; assay type: cell-based; conditions: time 7.0 hrs

inhibition [1] [%] | inhibition [2] [%] | inhibition [3] [%] | inhibition [4] [%] | inhibition [5] [%] | inhibition [6] [%] | inhibition [7] [%] | inhibition [8] [%] | inhibition [9] [%] | inhibition [10] [%] | inhibition [11] [%] | inhibition [12] [%] | inhibition [13] [%] | inhibition [14] [%] | inhibition [15] [%] | inhibition [16] [%] | inhibition [17] [%] | inhibition [18] [%] | Ratio [19] | Structure (SMILES)
83 | 126 | 85 | 82 | 46.5 | 102 | 98 | 94 | 99 | 91 | 87 | 72.5 | 84 | 111 | 98.5 | 102 | 22.5 | 24.5 |  | O=C(Nc1cnccc1-c1ccc2c(c1)OCO2)c1c[nH]c2ncc(C3=CC=CC(=S)C3)cc12
71 | 116 | 99 | 79 | 42 | 104 | 98.5 | 102 | 106 | 99 | 94 | 92.5 | 87.5 | 94 | 102 | 102 | 17 | 18 |  | O=C(Nc1cnccc1-c1ccc2c(c1)OCO2)c1c[nH]c2ncc(-c3ccccc3)cc12
 |  |  |  |  |  |  |  |  |  |  |  |  |  |  |  |  |  | 11 | [Cl-].[Li+]
35.5 | 113 | 97 | 75.5 | 92.5 | 106 | 96.5 | 90.5 | 102 | 104 | 92 | 84.5 | 96.5 | 108 | 102 | 107 | 27.5 | 21 |  | O=C(Nc1cnccc1N1CCOCC1)c1c[nH]c2ncc(-c3ccccc3)cc12
